scFv variants of Ab-14 (light chain) against a SARS-CoV-2 spike peptide

The target is the same throughout: PDVDLGDISGINAS, from the HR2 region of SARS-CoV-2 spike.

Parent scFv Ab-14: VH joined to VL by a 15-residue (Gly4Ser)3 linker. Changes lie in the light chain CDRs alone.
VH: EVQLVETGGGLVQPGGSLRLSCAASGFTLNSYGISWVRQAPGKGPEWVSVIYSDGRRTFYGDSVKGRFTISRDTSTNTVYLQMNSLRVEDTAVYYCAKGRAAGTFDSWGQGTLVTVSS
VL: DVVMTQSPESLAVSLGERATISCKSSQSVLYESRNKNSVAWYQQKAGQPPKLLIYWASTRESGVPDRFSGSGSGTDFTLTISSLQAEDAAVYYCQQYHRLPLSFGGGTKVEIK

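Phage display of a naive human antibody library on the peptide gave the parent. Variants in AAYL50 differ from the parent at up to three CDR positions; double and triple changes were sampled at random. In AlphaSeq, yeast of one mating type display the scFv and yeast of the other type display the target. Binding brings cells together so that they mate, and sequencing counts the barcode pairs among the diploids. Scores were corrected for input abundance and mapped to Kd with protein pairs of known affinity run in the same pool. There are three technical replicates.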

Positions count from residue 1 of the parent VL; S28P puts P in place of S.
All variants listed here change T59 of the VL, counted from its first residue.
The Kd shown is the geometric mean over detected replicates; a lower Kd is a better binder.
An entry "nd" has no value in the source: the pair was not observed among the diploids in any replicate. This suggests poor binding but is not conclusive.

The variant S28P L30D T59G showed 2.5 µM (2 of 3 replicates; controls 2 of 9).
The variant T59P R60I L102I showed nd (0 of 3 replicates; controls 0 of 9).
The variant N37E T59K Y97C showed 5.6 µM (1 of 3 replicates; controls 0 of 9).
The variant W56P T59R L100D showed 93 µM (1 of 3 replicates; controls 2 of 9).
The variant K24I S28L T59R showed 200 µM (1 of 3 replicates; controls 1 of 9).
The variant S28Q V39M T59Q showed nd (0 of 3 replicates; controls 1 of 9).
The variant Q27P S33L T59S showed 360 nM (1 of 3 replicates; controls 2 of 9).
The variant S26Q T59Q H98K showed 23 nM (3 of 3 replicates; controls 1 of 9).
The variant T59W L100H showed 11 µM (2 of 3 replicates; controls 3 of 9).
The variant T59G R99Y showed 3.2 µM (1 of 3 replicates; controls 2 of 9).
The variant T59S R99L P101H showed nd (0 of 3 replicates; controls 0 of 9).
The variant S25T T59N H98W showed 7.4 nM (3 of 3 replicates; controls 0 of 9).
The variant T59E H98L showed 130 nM (3 of 3 replicates; controls 2 of 9).
The variant S28C N35H T59I showed 340 nM (3 of 3 replicates; controls 2 of 9).
The variant S26R A57Y T59S showed 11 µM (1 of 3 replicates; controls 1 of 9).
The variant N37G T59M P101Q showed 47 nM (3 of 3 replicates; controls 0 of 9).
The variant S28C A57K T59R showed nd (0 of 3 replicates; controls 0 of 9).
The variant K24V N35L T59R showed 1.1 µM (3 of 3 replicates; controls 3 of 9).
The variant K24S Y31P T59L showed 8.5 nM (3 of 3 replicates; controls 0 of 9).
The variant K24T A40E T59M showed 16 µM (3 of 3 replicates; controls 3 of 9).
The variant K24Y Y31C T59C showed 1.8 µM (3 of 3 replicates; controls 0 of 9).
The variant V29H Y31L T59M showed 1.5 nM (3 of 3 replicates; controls 0 of 9).
The variant T59H showed 8.5 µM (2 of 3 replicates; controls 5 of 9).
The variant R34D T59V Q95G showed 23 nM (3 of 3 replicates; controls 5 of 9).
The variant A40S T59I showed 190 nM (3 of 3 replicates; controls 2 of 9).
The variant A40H T59I L102T showed nd (0 of 3 replicates; controls 2 of 9).
The variant N37S T59D Q95C showed 12 µM (3 of 3 replicates; controls 7 of 9).
The variant T59G E61A Y97G showed nd (0 of 3 replicates; controls 0 of 9).
The variant S26E K36E T59N showed nd (0 of 3 replicates; controls 0 of 9).
The variant S38G V39Y T59M showed 37 µM (1 of 3 replicates; controls 0 of 9).
The variant T59Y E61S Q95V showed nd (0 of 3 replicates; controls 0 of 9).
The variant S26C T59R R60N showed 550 µM (3 of 3 replicates; controls 9 of 9).
The variant V29A E32L T59C showed nd (0 of 3 replicates; controls 3 of 9).
The variant S33Y A40V T59D showed 5.4 µM (1 of 3 replicates; controls 2 of 9).
The variant V29H N37K T59A showed 600 nM (3 of 3 replicates; controls 2 of 9).
The variant T59E R99P L100E showed nd (0 of 3 replicates; controls 2 of 9).
The variant T59D S103G showed 30 nM (3 of 3 replicates; controls 0 of 9).
The variant W56N A57H T59I showed 1.2 nM (3 of 3 replicates; controls 4 of 9).
The variant N37A T59A Q96W showed 5.5 µM (1 of 3 replicates; controls 3 of 9).
The variant A40I T59H Y97I showed 32 µM (2 of 3 replicates; controls 4 of 9).
The variant S25H S26P T59E showed 1.8 nM (3 of 3 replicates; controls 1 of 9).
The variant T59D S62F R99Y showed 190 nM (3 of 3 replicates; controls 6 of 9).
The variant T59C L102A showed 25 µM (1 of 3 replicates; controls 2 of 9).
The variant K24G T59D Y97Q showed 440 µM (3 of 3 replicates; controls 3 of 9).
The variant S26Y T59K S62V showed 160 nM (1 of 3 replicates; controls 1 of 9).
The variant K24W T59S H98F showed 2.0 µM (3 of 3 replicates; controls 2 of 9).
The variant W56I A57P T59S showed 31 µM (2 of 3 replicates; controls 1 of 9).
The variant Q27P A57P T59V showed 3.8 µM (1 of 3 replicates; controls 0 of 9).
The variant S25A S33F T59K showed 47 nM (3 of 3 replicates; controls 3 of 9).
The variant S38W T59D P101D showed 730 nM (3 of 3 replicates; controls 3 of 9).

Top 6 of the variants detected in all replicates, tightest first:

changes	apparent Kd	replicates with signal	control signals
W56N A57H T59I	1.2 nM	3 of 3	4 of 9
V29H Y31L T59M	1.5 nM	3 of 3	0 of 9
S25H S26P T59E	1.8 nM	3 of 3	1 of 9
S25T T59N H98W	7.4 nM	3 of 3	0 of 9
K24S Y31P T59L	8.5 nM	3 of 3	0 of 9
S26Q T59Q H98K	23 nM	3 of 3	1 of 9

Background: pairings of library AAYL50 with three empty control strains gave a value in 18% of cases (median 15 µM, 5th percentile 970 nM). Values in that range, when seen in few replicates, are hard to tell from nonspecific mating. The control count says in how many pairings with the empty strains this scFv gave a signal.
In this assay the parent's reference entry averaged 4.4 nM; its copy inside this library read 48 nM.

Data: MIT Lincoln Laboratory AlphaSeq set, Engelhart et al. 2022, doi:10.1038/s41597-022-01779-4, as distributed in FLAb.